From ChEMBL document CHEMBL1165960, “Identification of the three-dimensional pharmacophore of kappa-opioid receptor agonists” (Bioorg Med Chem, 2010)

Experiment: Selectivity ratio of Ki for mu opioid receptor to kappa opioid receptor

CN(C(=O)Cc1ccc(Cl)c(Cl)c1)C1CCCCC1N1CCCC1 (configuration not stated)
Ratio Ki: 630

CN(C(=O)Cc1ccccc1)[C@H]1CC[C@@]2(CCCO2)C[C@@H]1N1CCCC1
Ratio Ki: 292
